# From patent publication US20070160574A1, “Design of CXC chemokine analogs for the treatment of human diseases” (priority 2000, published 2007)
# Tested on: IL-8 receptor (differentiated HL-60 cells)
# Assay: Calcium mobilization in differentiated HL-60 cells, Fluo-4/AM
# Assay type: cell-based
# Settings: over control wells (plain medium = 1.0), about 10 to 200 μg/ml
# Protocol: The HL-60 cells are cultured as described above, harvested and suspended in Tyrode's salt solution at a density of about 2×10^6 cells/ml. The Tyrode's salt solution contains about 137 mM NaCl, 2.7 mM KCl, 1 mM MgCl2, 1 mM CaCl2, 0.2 mM NaH2PO4, 12 mM NaHCO3, and 5.5 mM glucose.
# The cells are labeled with 4 μM of Fluo-4/AM (Molecular Probes, Inc.) for 45 minutes at 37° C. to measure calcium mobilization from cells. The label is a dye that fluoresces when bound to calcium. […] An increase in fluorescence indicates an increase in calcium mobilization. The cells are washed three times with the Tyrode's salt solution after labeling and re-suspended at 5×10^6 cells/ml.
# Changes in the level of cellular fluorescence are read in a Thermo Labsystems Fluorskan Acsent fluorescence plate reader (VWR Scientific Prod's). The controls include cells treated with either the native chemokine or the plain medium of Tyrode's Salt Solution. Data is expressed using 1.0 as the standard level of fluorescence in the plain medium. The reported values represent the mean of at least duplicate measurements from wells in one or more experiments.
row,Structure (SMILES),Average fold increase in calcium mobilization
1,CC[C@H](C)[C@H](NC(=O)[C@H](CS)NC(=O)[C@H](CCC(N)=O)NC(=O)[C@H](CS)NC(=O)[C@H](CCCNC(=N)N)NC(=O)[C@H](CC(C)C)NC(=O)[C@H](CCC(=O)O)NC(=O)[C@H](CCCCN)NC(=O)[C@H](C)NC(=O)[C@@H](N)CO)C(=O)N[C@@H](CCCCN)C(=O)N[C@H](C(=O)N[C@@H](Cc1ccc(O)cc1)C(=O)N[C@@H](CO)C(=O)N[C@@H](CCCCN)C(=O)NCCCCCCCCCCC(=O)N[C@@H](CC(N)=O)C(=O)N[C@@H](Cc1c[nH]c2ccccc12)C(=O)N[C@H](C(=O)N[C@@H](CCC(N)=O)C(=O)N[C@@H](CCCNC(=N)N)C(=O)N[C@H](C(=O)N[C@H](C(=O)N[C@@H](CCC(=O)O)C(=O)N[C@@H](CCCCN)C(=O)N[C@@H](Cc1ccccc1)C(=O)N[C@@H](CC(C)C)C(=O)N[C@@H](CCCCN)C(=O)N[C@@H](CCCNC(=N)N)C(=O)N[C@@H](C)C(=O)N[C@@H](CCC(=O)O)C(=O)N[C@@H](CC(N)=O)C(N)=O)C(C)C)C(C)C)C(C)C)[C@@H](C)O [SEQ ID NO:1646],33.9
2,CC[C@H](C)[C@H](NC(=O)[C@H](Cc1c[nH]c2ccccc12)NC(=O)[C@H](CCC(N)=O)NC(=O)[C@H](Cc1ccc(O)cc1)NC(=O)[C@H](CCCNC(=N)N)NC(=O)[C@H](CC(C)C)NC(=O)[C@H](CCC(=O)O)NC(=O)[C@H](CCCCN)NC(=O)[C@H](C)NC(=O)[C@H](CO)NC(C)=O)C(=O)N[C@@H](CCCNC(=N)N)C(=O)N[C@H](C(=O)N[C@@H](Cc1ccc(O)cc1)C(=O)N[C@@H](CO)C(=O)N[C@@H](CCCCN)C(=O)NCCCCCCCCCCC(=O)N[C@@H](CC(N)=O)C(=O)N[C@@H](Cc1c[nH]c2ccccc12)C(=O)N[C@H](C(=O)N[C@@H](CCC(N)=O)C(=O)N[C@@H](CCCNC(=N)N)C(=O)N[C@H](C(=O)N[C@H](C(=O)N[C@@H](CCC(=O)O)C(=O)N[C@@H](CCCCN)C(=O)N[C@@H](Cc1ccccc1)C(=O)N[C@@H](CC(C)C)C(=O)N[C@@H](CCCCN)C(=O)N[C@@H](CCCNC(=N)N)C(=O)N[C@@H](C)C(=O)N[C@@H](CCC(=O)O)C(=O)N[C@@H](CC(N)=O)C(N)=O)C(C)C)C(C)C)C(C)C)[C@@H](C)O [SEQ ID NO:1672],13.4
3,CC[C@H](C)[C@H](NC(=O)[C@H](CO)NC(=O)[C@H](CCC(N)=O)NC(=O)[C@H](CO)NC(=O)[C@H](CCCNC(=N)N)NC(=O)[C@H](CC(C)C)NC(=O)[C@H](CCC(=O)O)NC(=O)[C@H](CCCCN)NC(=O)[C@H](C)NC(=O)[C@@H](N)CO)C(=O)N[C@@H](CCCCN)C(=O)N[C@H](C(=O)N[C@@H](Cc1ccc(O)cc1)C(=O)N[C@@H](CO)C(=O)N[C@@H](CCCCN)C(=O)NCCCCCCCCCCC(=O)N[C@@H](CC(N)=O)C(=O)N[C@@H](Cc1c[nH]c2ccccc12)C(=O)N[C@H](C(=O)N[C@@H](CCC(N)=O)C(=O)N[C@@H](CCCNC(=N)N)C(=O)N[C@H](C(=O)N[C@H](C(=O)N[C@@H](CCC(=O)O)C(=O)N[C@@H](CCCCN)C(=O)N[C@@H](Cc1ccccc1)C(=O)N[C@@H](CC(C)C)C(=O)N[C@@H](CCCCN)C(=O)N[C@@H](CCCNC(=N)N)C(=O)N[C@@H](C)C(=O)N[C@@H](CCC(=O)O)C(=O)N[C@@H](CC(N)=O)C(N)=O)C(C)C)C(C)C)C(C)C)[C@@H](C)O [SEQ ID NO:1649],28.2
4,CC[C@H](C)[C@H](NC(=O)[C@H](Cc1c[nH]c2ccccc12)NC(=O)[C@H](CCC(N)=O)NC(=O)[C@H](Cc1ccc(O)cc1)NC(=O)[C@H](CCCNC(=N)N)NC(=O)[C@H](CC(C)C)NC(=O)[C@H](CCC(=O)O)NC(=O)[C@H](CCCCN)NC(=O)[C@H](C)NC(=O)[C@H](CO)NC(C)=O)C(=O)N[C@@H](CCCCN)C(=O)N[C@H](C(=O)N[C@@H](Cc1ccc(O)cc1)C(=O)N[C@@H](CO)C(=O)N[C@@H](CCCCN)C(=O)NCCCCCCCCCCC(=O)N[C@@H](CC(N)=O)C(=O)N[C@@H](Cc1c[nH]c2ccccc12)C(=O)N[C@H](C(=O)N[C@@H](CCC(N)=O)C(=O)N[C@@H](CCCNC(=N)N)C(=O)N[C@H](C(=O)N[C@H](C(=O)N[C@@H](CCC(=O)O)C(=O)N[C@@H](CCCCN)C(=O)N[C@@H](Cc1ccccc1)C(=O)N[C@@H](CC(C)C)C(=O)N[C@@H](CCCCN)C(=O)N[C@@H](CCCNC(=N)N)C(=O)N[C@@H](C)C(=O)N[C@@H](CCC(=O)O)C(=O)N[C@@H](CC(N)=O)C(N)=O)C(C)C)C(C)C)C(C)C)[C@@H](C)O [SEQ ID NO:1670],65.4
5,CC[C@H](C)[C@H](NC(=O)[C@H](Cc1ccc(O)cc1)NC(=O)[C@H](CCC(N)=O)NC(=O)[C@H](C)NC(=O)[C@H](CCCNC(=N)N)NC(=O)[C@H](CC(C)C)NC(=O)[C@H](CCC(=O)O)NC(=O)[C@H](CCCCN)NC(=O)[C@H](C)NC(=O)[C@H](CO)NC(C)=O)C(=O)N[C@@H](CCCCN)C(=O)N[C@H](C(=O)N[C@@H](Cc1ccc(O)cc1)C(=O)N[C@@H](CO)C(=O)N[C@@H](CCCCN)C(=O)NCCCCCCCCCCC(=O)N[C@@H](CC(N)=O)C(=O)N[C@@H](Cc1c[nH]c2ccccc12)C(=O)N[C@H](C(=O)N[C@@H](CCC(N)=O)C(=O)N[C@@H](CCCNC(=N)N)C(=O)N[C@H](C(=O)N[C@H](C(=O)N[C@@H](CCC(=O)O)C(=O)N[C@@H](CCCCN)C(=O)N[C@@H](Cc1ccccc1)C(=O)N[C@@H](CC(C)C)C(=O)N[C@@H](CCCCN)C(=O)N[C@@H](CCCNC(=N)N)C(=O)N[C@@H](C)C(=O)N[C@@H](CCC(=O)O)C(=O)N[C@@H](CC(N)=O)C(N)=O)C(C)C)C(C)C)C(C)C)[C@@H](C)O [SEQ ID NO:1665],103.6
6,CC[C@H](C)[C@H](NC(=O)[C@H](Cc1ccc(O)cc1)NC(=O)[C@H](CCC(N)=O)NC(=O)[C@H](Cc1ccc(O)cc1)NC(=O)[C@H](CCCNC(=N)N)NC(=O)[C@H](CC(C)C)NC(=O)[C@H](CCC(=O)O)NC(=O)[C@H](CCCCN)NC(=O)[C@H](C)NC(=O)[C@H](CO)NC(C)=O)C(=O)N[C@@H](CCCCN)C(=O)N[C@H](C(=O)N[C@@H](Cc1ccc(O)cc1)C(=O)N[C@@H](CO)C(=O)N[C@@H](CCCCN)C(=O)NCCCCCCCCCCC(=O)N[C@@H](CC(N)=O)C(=O)N[C@@H](Cc1c[nH]c2ccccc12)C(=O)N[C@H](C(=O)N[C@@H](CCC(N)=O)C(=O)N[C@@H](CCCNC(=N)N)C(=O)N[C@H](C(=O)N[C@H](C(=O)N[C@@H](CCC(=O)O)C(=O)N[C@@H](CCCCN)C(=O)N[C@@H](Cc1ccccc1)C(=O)N[C@@H](CC(C)C)C(=O)N[C@@H](CCCCN)C(=O)N[C@@H](CCCNC(=N)N)C(=O)N[C@@H](C)C(=O)N[C@@H](CCC(=O)O)C(=O)N[C@@H](CC(N)=O)C(N)=O)C(C)C)C(C)C)C(C)C)[C@@H](C)O [SEQ ID NO:1667],57.3
7,CC[C@H](C)[C@H](NC(=O)[C@H](Cc1ccccc1)NC(=O)[C@H](CCC(N)=O)NC(=O)[C@H](Cc1ccc(O)cc1)NC(=O)[C@H](CCCNC(=N)N)NC(=O)[C@H](CC(C)C)NC(=O)[C@H](CCC(=O)O)NC(=O)[C@H](CCCCN)NC(=O)[C@H](C)NC(=O)[C@H](CO)NC(C)=O)C(=O)N[C@@H](CCCNC(=N)N)C(=O)N[C@H](C(=O)N[C@@H](Cc1ccc(O)cc1)C(=O)N[C@@H](CO)C(=O)N[C@@H](CCCCN)C(=O)NCCCCCCCCCCC(=O)N[C@@H](CC(N)=O)C(=O)N[C@@H](Cc1c[nH]c2ccccc12)C(=O)N[C@H](C(=O)N[C@@H](CCC(N)=O)C(=O)N[C@@H](CCCNC(=N)N)C(=O)N[C@H](C(=O)N[C@H](C(=O)N[C@@H](CCC(=O)O)C(=O)N[C@@H](CCCCN)C(=O)N[C@@H](Cc1ccccc1)C(=O)N[C@@H](CC(C)C)C(=O)N[C@@H](CCCCN)C(=O)N[C@@H](CCCNC(=N)N)C(=O)N[C@@H](C)C(=O)N[C@@H](CCC(=O)O)C(=O)N[C@@H](CC(N)=O)C(N)=O)C(C)C)C(C)C)C(C)C)[C@@H](C)O [SEQ ID NO:1661],100.6
8,CC[C@H](C)[C@H](NC(=O)[C@H](Cc1ccccc1)NC(=O)[C@H](CCC(N)=O)NC(=O)[C@H](C)NC(=O)[C@H](CCCNC(=N)N)NC(=O)[C@H](CC(C)C)NC(=O)[C@H](CCC(=O)O)NC(=O)[C@H](CCCCN)NC(=O)[C@H](C)NC(=O)[C@H](CO)NC(C)=O)C(=O)N[C@@H](CCCNC(=N)N)C(=O)N[C@H](C(=O)N[C@@H](Cc1ccc(O)cc1)C(=O)N[C@@H](CO)C(=O)N[C@@H](CCCCN)C(=O)NCCCCCCCCCCC(=O)N[C@@H](CC(N)=O)C(=O)N[C@@H](Cc1c[nH]c2ccccc12)C(=O)N[C@H](C(=O)N[C@@H](CCC(N)=O)C(=O)N[C@@H](CCCNC(=N)N)C(=O)N[C@H](C(=O)N[C@H](C(=O)N[C@@H](CCC(=O)O)C(=O)N[C@@H](CCCCN)C(=O)N[C@@H](Cc1ccccc1)C(=O)N[C@@H](CC(C)C)C(=O)N[C@@H](CCCCN)C(=O)N[C@@H](CCCNC(=N)N)C(=O)N[C@@H](C)C(=O)N[C@@H](CCC(=O)O)C(=O)N[C@@H](CC(N)=O)C(N)=O)C(C)C)C(C)C)C(C)C)[C@@H](C)O [SEQ ID NO:1671],134.8
